Source: patent US20090054305A1, “Mixtures of Amylin and Insulin” (Novo Nordisk A/S, priority 2006, published 2009)

Tests used:
[1] = ThT fibrillation assay (physical stability); assay type: physicochemical; settings: 174 mM glycerol, 16 mM phenol, 16 mM m-cresol, 30 mM sodium acetate, pH 3.5; 37° C.
Excerpt: Low physical stability of a peptide may lead to amyloid fibril formation, which is observed as well-ordered, thread-like macromolecular structures in the sample eventually resulting in gel formation. In a ThT fibrillation assay application a small molecule indicator probe is used. Thioflavin T (ThT) has a distinct fluorescence signature when binding to fibrils (Naiki et al. (1989) Anal. Biochem. 177, 244-249; LeVine (1999) Methods. Enzymol. 309, 274-284).
The time course for fibril formation can be described by a sigmoidal curve as shown in FIG. 10 with the following expression (Nielsen et al. (2001) Biochemistry 40, 6036-6046):
Here, F is the ThT fluorescence at the time t. The constant t0 is the time needed to reach 50% of maximum fluorescence. The two important parameters describing fibril formation are the lag-time calculated by t0−2τ and the apparent rate constant kapp=1/τ. […]
Incubation at given temperature, shaking and measurement of the ThT fluorescence emission were done in a Fluoroskan Ascent FL fluorescence platereader (Thermo Labsystems). […] Fluorescence measurement was done using excitation through a 444 nm filter and measurement of emission through a 485 nm filter.
Each run was initiated by incubating the plate at the assay temperature for 10 min. The plate was measured every 20 minutes for a desired period of time. […]

[2] = treated test animals, e.g. provoking marked hyperlactemia followed by hyperglycemia; cited from earlier work
[3] = compared to human amylin; cited from earlier work

CC[C@H](C)[C@H](NC(=O)[C@@H]1CCCN1C(=O)CNC(=O)[C@H](Cc1ccccc1)NC(=O)[C@H](CC(N)=O)NC(=O)[C@H](CC(N)=O)NC(=O)[C@H](CO)NC(=O)[C@H](CO)NC(=O)[C@H](Cc1c[nH]cn1)NC(=O)[C@@H](NC(=O)[C@H](CC(C)C)NC(=O)[C@H](Cc1ccccc1)NC(=O)[C@H](CC(N)=O)NC(=O)[C@H](C)NC(=O)[C@H](CC(C)C)NC(=O)[C@H](CCCNC(=N)N)NC(=O)[C@H](CCC(N)=O)NC(=O)[C@@H](NC(=O)[C@H](C)NC(=O)[C@@H]1CSSC[C@H](NC(=O)[C@@H](N)CCCCN)C(=O)N[C@@H](CC(N)=O)C(=O)N[C@@H]([C@@H](C)O)C(=O)N[C@@H](C)C(=O)N[C@@H]([C@@H](C)O)C(=O)N1)[C@@H](C)O)C(C)C)C(=O)N[C@@H](CC(C)C)C(=O)N1CCC[C@H]1C(=O)N1CCC[C@H]1C(=O)N[C@H](C(=O)N[C@@H](CC(N)=O)C(=O)N[C@H](C(=O)NCC(=O)N[C@@H](CO)C(=O)N[C@@H](CC(N)=O)C(=O)N[C@H](C(=O)N[C@@H](Cc1ccc(O)cc1)C(N)=O)[C@@H](C)O)C(C)C)[C@@H](C)O [^25, 28, 29Pro-h-amylin]
fibrillation / ThT fluorescence signal throughout the assay time [1]: inert towards fibrillation | amylin activity in vivo [2]: amylin activity in vivo | solubility and stability characteristics [3]: more desirable solubility and stability characteristics
